From patent publication US20090047269A1, “METABOLOMIC CANCER TARGETS” (The Regents of the University of Michigan, priority 2007, published 2009)

System: immortalized benign RWPE prostate cells
Assay: Modified Boyden chamber matrigel invasion assay, RWPE cells
Type: cell-based
Settings: pre-treatment of RWPE cells with 10 μM

C#Cc1cccc(Nc2ncnc3cc(OCCOC)c(OCCOC)cc23)c1 [reference compound]
decrease in sarcosine-induced invasion: 2 fold
